# Earlier results, collected in patent US20150257983A1, “FLUORIDE-CONTAINING VARNISH FOR APPLICATION TO THE TOOTH SURFACE” (Ivoclar Vivadent AG, priority 2012, published 2015).
# Details: in water, 25° C.
substance,measurement,value
Sodium hexafluorophosphate monohydrate,Solubility (g/100 g H2O),103 g/100 g H2O
same,Solubility (mol/kg H2O),5.5 mol/kg H2O
